Laboratory results from US8071549B2, “Compounds capable of affecting differentiation, proliferation, regeneration, plasticity and survival cells” (priority 2001, dated 2011).

Amino acid sequences for entries named in this document (tags omitted). Residues count along the entry.
UniProt P11362, 22-822: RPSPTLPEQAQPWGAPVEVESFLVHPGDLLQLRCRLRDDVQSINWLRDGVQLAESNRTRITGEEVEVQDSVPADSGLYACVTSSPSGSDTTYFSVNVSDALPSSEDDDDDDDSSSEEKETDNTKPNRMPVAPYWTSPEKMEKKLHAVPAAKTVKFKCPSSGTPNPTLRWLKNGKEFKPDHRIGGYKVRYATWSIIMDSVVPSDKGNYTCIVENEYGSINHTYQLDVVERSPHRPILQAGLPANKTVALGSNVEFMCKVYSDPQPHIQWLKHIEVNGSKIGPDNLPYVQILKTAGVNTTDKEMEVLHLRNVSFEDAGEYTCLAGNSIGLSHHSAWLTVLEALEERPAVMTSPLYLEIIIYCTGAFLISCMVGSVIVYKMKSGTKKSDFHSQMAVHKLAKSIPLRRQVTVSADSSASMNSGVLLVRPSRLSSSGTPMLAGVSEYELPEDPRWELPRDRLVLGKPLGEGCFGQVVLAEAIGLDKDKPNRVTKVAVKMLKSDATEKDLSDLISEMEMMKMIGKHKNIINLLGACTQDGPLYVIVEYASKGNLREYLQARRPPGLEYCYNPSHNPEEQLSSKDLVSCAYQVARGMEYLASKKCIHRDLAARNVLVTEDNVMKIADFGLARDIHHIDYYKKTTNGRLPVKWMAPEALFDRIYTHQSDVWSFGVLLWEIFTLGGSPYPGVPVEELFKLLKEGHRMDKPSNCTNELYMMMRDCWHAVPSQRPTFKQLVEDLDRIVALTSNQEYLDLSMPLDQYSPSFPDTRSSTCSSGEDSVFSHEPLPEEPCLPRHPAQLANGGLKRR

Experiments:
[1] = test system: second Ig module of the FGF-receptor; assay type: binding; details: 0.05 mM 15N-labeled second F3 module + 1 mM second Ig module of the FGF-receptor
Excerpt: (§1) This expression system was selected because P. pastoris is capable of protein folding and processing similar to higher eukaryotes, and the protein secreted into the medium can be purified easily.

[2] = test system: third Ig module of the FGF-receptor; assay type: binding; details: 0.05 mM 15N-labeled second F3 module + 1 mM third Ig module of the FGF-receptor
Excerpt: as §1

[3] = biological target: T1, FGF-receptor 1 (Homo sapiens, UniProt P11362); experiment: FGF-receptor phosphorylation in transfected HEK293 cells (immunoblotting); assay type: cell-based; details: 5 μM, 20 min, HEK293 cells with His-tagged FGF-receptor 1
T1 construct: expressed in transfected cells; host or cells: HEK293, transient, PcDNA3.1(+) plasmid
Protocol: Cells were grown in DMEM 1965 with 10% FCS, 100 U/ml penicillin, 100 μg/ml streptomycin and 58.4 g/l Glutamax. ˜0.8*10^6 cells were plated in 60 mm plates and cultured for 24 hrs before being transfected using LipofectAMIN PLUS™ reagent kit according to manufacturers instructions (Gibco BRL) with 0.2 μg PcDNA3.1(+) plasmid encoding a his-tagged (C-terminal hexa-histidine) version of FGFR-1. Cells were grown another 24 hrs in full medium, and then shifted to starving media (DMEM 1965 with 0.5% FCS) overnight.
FGFR-1 transfected cells, incubated with 50 μg/ml NCAM derived recombinant fIII.2 or FG-loop for 20 minutes or non-stimulated, were lysed in 8M urea in PBS with 1 mM orthovanadate. The FGFR-1 was purified from total lysate via the His-tag moiety on an IMAC column. […] Samples were added SDS-PAGE sample buffer and analysed by western blotting using anti-pentahis ab (#34660 Qiagen) or anti-phosphotyrosine ab (PY20) (#11120 Transduction Laboratories). Bands were visualised by chemilumiscense and density was measured using a GeneGnome from SynGene with a 16 bit camera.
Therefore, HEK293 cells were grown for 24 h on plastic plates, and subsequently transfected with a His-tagged version of the FGF-receptor 1 and cultured for another 24 h. […] The purified FGF-receptor 1 was then analyzed by immunoblotting using antibodies either to the His-tag or phosphotyrosine. […]

[4] = test system: hippocampal neurons; experiment: Neurite outgrowth from hippocampal neurons

- changes of 1H and 15N chemical shifts of residues of the F3 module [2]: significant perturbation
- increase of FGF-receptor phosphorylation compared to control cells [3]: approx. 150%
- inhibition of induced neurite outgrowth by an antibody against the FGF-receptor ([4]; 5 μM second F3 module or 50 μM FG loop peptide): complete inhibition
B1: second F3 module of NCAM: recombinant protein corresponding to aminoacids 612-705 of rat NCAM (swissprot p13596), produced in yeast P. pastoris (protein)
chain: AGPSAPKLEGQMGEDGNSIKVNLIKQDDGGSPIRHYLVKYRALASEWKPEIRLPSGSDHVMLKSLDWNAEYEVYVVAENQQGKSKAAHFVFRTSAQ
- changes of the chemical shifts of the F3 module [1]: No significant changes of the chemical shifts
- length of neurites per cell compared to control, non-stimulated neurons ([4]; 5 μM, 24 h): substantially increased
- neurite outgrowth in dose-response study ([4]; bell-shaped dose-response curve, 24 h): induced neurite outgrowth
